Ab-14 light chain CDR variants: yeast mating affinities

Data: MIT Lincoln Laboratory AlphaSeq set, Li et al. 2023, doi:10.1038/s41467-023-39022-2, as distributed in FLAb.

Antigen: PDVDLGDISGINAS, a 14-residue peptide of the SARS-CoV-2 spike HR2 region.

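Designed CDR sequences, proposed from the first random library and measured here. Their group label is 14L_Ctrl (Ctrl: baseline library sampled from a position-specific scoring matrix, with some repeated check sequences). The assay is AlphaSeq: two haploid yeast populations carry antibody and antigen on their surface. The frequency of each diploid, read from paired DNA barcodes, reflects how well the two displayed proteins bind. Scores were corrected for input abundance and mapped to Kd with protein pairs of known affinity run in the same pool. Each pool was mated in six replicate cultures.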

Each scFv is VH, the linker GGGGSGGGGSGGGGS, VL, as in the parent Ab-14, and differs from it in the CDRs of the light chain only.
VH: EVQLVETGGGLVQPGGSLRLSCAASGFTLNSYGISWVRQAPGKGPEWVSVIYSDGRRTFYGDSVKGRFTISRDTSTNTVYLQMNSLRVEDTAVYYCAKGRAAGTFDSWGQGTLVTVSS
VL: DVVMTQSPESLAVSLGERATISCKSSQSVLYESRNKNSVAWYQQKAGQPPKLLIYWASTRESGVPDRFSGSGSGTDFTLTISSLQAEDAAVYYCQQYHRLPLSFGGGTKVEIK

Variants are written as CDR1, CDR2 and CDR3 of the light chain (limits as in the source). Parent: KSSQSVLYESRNKNSVA, WASTRES, QQYHRLPLS.
The read-out is the apparent dissociation constant on a log10 scale (nM): the lower, the stronger.
A pair that was not seen in that replicate is written "nd"; this usually means weak binding, but a binder can also be missed.
Empty control strains, which show no peptide, gave a signal in 4% of pairings with all light chain designs; the median was 2.64 and 95% of these signals were weaker than 1.59. No background was subtracted. The control count says in how many pairings with the empty strains this scFv gave a signal, with their mean in brackets.
In the paper, a design with two or fewer of six values counts as a poor binder.
The range of this assay differs from that of the first round, and the authors advise against merging the two.

| CDR-L1 | CDR-L2 | CDR-L3 | log10 Kd (nM) by replicate | empty controls |
|---|---|---|---|---|
| KCSHSVLYESQNKNSVA | EASTRES | QQYHRLPLS | 0.04 -0.06 0.03 -0.14 -0.03 0.19 | 2/18 (2.89) |
| KISQSVLYESRNKNSVA | WAYTRES | QQYHRLPLS | 1.13 0.70 0.59 0.97 0.75 1.04 | 1/18 (1.19) |
| KSSQSVLYNSRNKQSVA | AASTRES | QQYHRLPLS | 0.99 0.97 1.77 1.38 1.48 0.93 | 0/18 |
| KSSQAVLYESRNKNSIA | NGSTRES | QQYHRLPLS | 0.24 0.23 0.30 0.02 0.22 0.35 | 1/18 (1.66) |
| KSSQSVGYISRDKNSVA | WDSTRES | QQYHRLPLS | nd 3.24 nd nd nd nd | 0/18 |
| KSSQSVLAESRNKNSVA | WASTRES | QQYHHLPLS | 0.11 0.15 0.94 -0.10 0.59 0.85 | 0/18 |
| KLWQSVLYESRNKNSVA | QASTRES | QQYHRLPLS | 0.48 -0.08 0.17 0.37 -0.24 0.35 | 0/18 |
| KSNQSVLGEDRNMNSVA | WASTRAS | QQYHRLPLS | 0.97 0.97 0.84 0.62 0.53 0.88 | 1/18 (1.68) |
| KSSQSWLAESRNKNSVW | WASTRES | QQYHRLPLS | nd nd nd nd nd nd | 0/18 |
| KSSGSVHYESRNKNSVA | WASTRES | QQYHRLPLS | 2.06 3.26 3.12 nd 2.21 2.41 | 1/18 (2.93) |
| KFSQSTLYESRNKNSVA | WASTRES | QQYHRLPLP | 2.12 nd nd 2.36 nd 2.49 | 0/18 |
| WSSQSVLYESRNKNSVA | WASTRES | QQYHWLPLS | nd nd nd nd 1.33 nd | 0/18 |
| KSSQSTLYESTNKNSVA | NASTRES | QQYHRLPLS | 0.26 0.01 -0.11 0.16 0.03 0.13 | 0/18 |
| KISQSVLYESREDNSVA | SASTRES | QQYHRLPLS | 0.12 -0.08 0.18 -0.17 -0.01 0.03 | 1/18 (3.29) |
| KSSYSVLGESDNKNSVA | KASTRES | QQYHRLPLS | 0.51 0.44 0.33 0.34 0.71 0.62 | 0/18 |
| KSSWSVLYESTNMNSVA | WASTRES | QQYARLPNS | nd nd nd nd nd nd | 0/18 |
| KSSSSVLYESRNKNSVA | WASTRES | QQYHRLPLS | nd 1.64 nd 1.95 nd 1.69 | 1/18 (1.62) |
| KSSQSVLYESGNKNSVA | WASTREN | QQYHVLPLS | nd 0.98 nd nd nd nd | 0/18 |
| KSSMAVLYESRNKNSVA | WASTRES | QQYHRLPLS | nd nd nd nd nd nd | 0/18 |
| KSSMSELYESRNKPSVA | SASTRES | QQYHRLPLS | 1.05 0.97 0.90 0.63 1.21 1.23 | 2/18 (2.39) |
| KSSQSMLYESRNKNSVA | WASTRES | QQYHRLPLS | nd nd 3.75 2.64 2.34 2.26 | 1/18 (1.69) |
| KSSWSVLTESRNKNSVA | WASTRCS | FQYHVLPLS | 0.96 nd nd nd nd nd | 0/18 |
| KSSQSVLYESTGKNSVA | WASTRES | QQYHRLPLS | 2.34 0.60 0.76 0.46 0.65 0.77 | 1/18 (1.05) |
| KSSQSWEYESRNKNSVA | GGSTRES | QAYHRLPLS | 0.45 0.44 0.31 0.21 0.42 0.65 | 1/18 (1.26) |
| KSSQSVLYESRNKNSVA | WASLAES | QQYGRLPLS | nd nd nd nd nd nd | 0/18 |
| KSSQSVLYESRNKNSVA | DASTRES | QQYARLPLS | 0.16 0.57 0.67 0.95 0.68 0.80 | 0/18 |
| KSSLSVDYESRMKNSVA | WASTRES | QQYHRAPLS | nd nd nd nd nd nd | 0/18 |
| KSSQSQLYQSRDKNSVA | WASTRES | QQYHRLPLS | nd 2.60 nd 2.63 1.44 nd | 1/18 (2.20) |
| KSSQSVLYESDNKNSVA | GASTRES | QQYYRLPLS | 0.14 0.00 -0.04 -0.05 0.04 0.42 | 2/18 (2.80) |
| KSDQSVLMESRQTNSVA | WASTRES | QQYHRLPLS | 2.60 2.26 1.94 2.77 1.56 nd | 0/18 |
| KSSDSVLYESRNKNSVA | SASTRES | QQYHRLPLS | 0.18 -0.01 0.09 0.05 0.19 0.52 | 0/18 |

The 3 strongest on average among those seen in every replicate, once more:

CDR-L1	CDR-L2	CDR-L3	log10 Kd (nM) by replicate	empty controls
KCSHSVLYESQNKNSVA	EASTRES	QQYHRLPLS	0.04 -0.06 0.03 -0.14 -0.03 0.19	2/18 (2.89)
KISQSVLYESREDNSVA	SASTRES	QQYHRLPLS	0.12 -0.08 0.18 -0.17 -0.01 0.03	1/18 (3.29)
KSSQSTLYESTNKNSVA	NASTRES	QQYHRLPLS	0.26 0.01 -0.11 0.16 0.03 0.13	0/18